Measured values as given in ChEMBL document CHEMBL1157628, “Carbonic anhydrase activators. The first activation study of a coral secretory isoform with amino acids and amines” (Bioorg Med Chem, 2010).

The chains behind the UniProt entries cited, without tags or fusion partners. Where a name states a change or a piece, a line headed by the entry shows the natural chain unless it says otherwise.
UniProt P23280: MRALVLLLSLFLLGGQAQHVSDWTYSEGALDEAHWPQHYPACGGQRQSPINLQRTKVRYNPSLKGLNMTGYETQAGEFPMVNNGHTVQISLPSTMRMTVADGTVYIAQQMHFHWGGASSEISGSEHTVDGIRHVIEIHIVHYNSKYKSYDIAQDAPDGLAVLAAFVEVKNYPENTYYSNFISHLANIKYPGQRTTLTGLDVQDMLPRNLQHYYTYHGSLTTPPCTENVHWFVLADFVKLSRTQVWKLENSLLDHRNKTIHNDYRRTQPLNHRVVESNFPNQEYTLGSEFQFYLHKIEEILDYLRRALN

Columns and labels:
Stylophora pistillata = assay: Activation of Stylophora pistillata carbonic anhydrase STPCA by stopped flow CO2 hydration assay
[1] = biological target: Carbonic anhydrase 6 (Homo sapiens) (UniProt P23280); assay: Activation of human full length CA6 by stopped flow CO2 hydration assay
[2] = system: N[C@H](Cc1c[nH]c2ccccc12)C(=O)O; assay: Activity of human recombinant CA1 at 10 uM by stopped flow CO2 hydration assay

| Compound | KA (Stylophora pistillata) [µM] | KA [1] [µM] | kcat [2] [×10⁵ /s] |
| --- | --- | --- | --- |
| N[C@@H](Cc1ccccc1)C(=O)O | 34 | 1.23 | – |
| N[C@H](Cc1ccccc1)C(=O)O | 21 | 16 | – |
| Carbonic anhydrase 1 (Homo sapiens), P00915 | – | – | 2.3 |
